Assay results taken from US7741283B2, “Compositions and methods for inhibiting cell proliferation” (St. Louis University, priority 2003, dated 2010).

Molecular target: T1, acidic pH binding sites (Mus musculus, UniProt P14824)
T1 sequence (P14824 2-673): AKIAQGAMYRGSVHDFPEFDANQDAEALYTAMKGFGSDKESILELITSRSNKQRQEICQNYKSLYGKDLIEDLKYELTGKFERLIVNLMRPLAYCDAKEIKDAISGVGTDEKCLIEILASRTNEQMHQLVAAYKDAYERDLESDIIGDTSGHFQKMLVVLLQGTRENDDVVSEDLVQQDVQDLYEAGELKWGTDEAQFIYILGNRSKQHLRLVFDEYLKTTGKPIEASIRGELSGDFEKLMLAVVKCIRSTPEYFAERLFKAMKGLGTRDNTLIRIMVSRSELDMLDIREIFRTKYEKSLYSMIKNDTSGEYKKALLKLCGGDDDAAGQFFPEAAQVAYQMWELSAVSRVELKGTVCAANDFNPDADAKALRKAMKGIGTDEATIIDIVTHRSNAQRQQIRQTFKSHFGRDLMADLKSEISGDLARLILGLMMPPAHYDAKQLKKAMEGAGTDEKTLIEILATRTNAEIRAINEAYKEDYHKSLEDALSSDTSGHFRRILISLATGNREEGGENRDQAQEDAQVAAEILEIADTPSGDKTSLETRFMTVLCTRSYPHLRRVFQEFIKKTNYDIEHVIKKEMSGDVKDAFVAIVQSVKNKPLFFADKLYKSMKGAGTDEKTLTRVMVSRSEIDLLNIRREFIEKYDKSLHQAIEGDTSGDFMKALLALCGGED
Assay: Specific binding of 125I-ligands to MEF cells at acidic pH
Settings: pH 5.5

OCCN1CCN(CCCN2c3ccccc3Sc3ccc(C(F)(F)F)cc32)CC1 [fluphenazine, reference compound]
Inhibition of ^125I-α2M* binding to cells: most potent inhibitors
